Measurements reported in PubChem BioAssay AID576 (NMMLSC, 2007).
The entries are a selection whose mix differs from that of the whole data set. Active and inactive are the calls of the source.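 Rule for the calls: active = fluorescence ratio above 2.44, which is 1 plus 3 SD of all ratios; inconclusive = signal too bright to measure linearly, ratio around 10 or more; inactive = fluorescence ratio below 2.44.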

Test: compound autofluorescence on Jurkat cells, primary screen, artefact control for VLA-4 allosteric ligand project, cell-based, flow cytometry (AID 576);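 note: green fluorescence of cells measured with 488 nm excitation and 530 nm emission; tested at 10 µM compound in the well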
Conditions: active compounds read high, 1 = vehicle-only cell background

SMILES	fluorescence ratio
CP(=O)(Nc1ccccn1)Oc1ccccc1 (configuration not stated)	inactive: 0.97
Cc1nc2ccc3ccccc3c2o1.O=[N+]([O-])c1cc([N+](=O)[O-])c(O)c([N+](=O)[O-])c1	inactive: 1.11
CP(=O)(Nc1ccc2c(c1)OCCO2)Oc1ccccc1 (configuration not stated)	inactive: 0.99
Cc1ccccc1NP(C)(=O)Nc1ccccc1C	inactive: 1.09
CN(C)CCOC(=O)C(O)(c1ccccc1)C1CCCCC1 (configuration not stated)	inactive: 1.08
Cc1ccc(C)c(NP(C)(=O)Oc2ccccc2)c1 (configuration not stated)	inactive: 1.21
CP(=S)(Nn1cnnc1)Oc1ccccc1 (configuration not stated)	inactive: 1.05
